Entries after “also recorded” stand apart in the source; their conditions may differ. Like-named read-outs stand apart in the source and are kept apart here.
Tests used:
[1] = system: cultured somatosensory neurons (TG, DRG); experiment: Ratiometric calcium imaging of cultured sensory neurons; format: cell-based, mice or rats
mouse TG neurons = experiment: Whole cell patch clamp of cultured TG neurons; format: cell-based
hNav1.1 = hNav1.1 (Homo sapiens, UniProt P35498); format: cell-based
hNav1.2 = hNav1.2 (Homo sapiens, UniProt Q99250); format: cell-based; details: compared with hNav1.1; 100 nM
hNav1.4 -1.8 = format: cell-based, human; details: 100 nM
[2] = system: rKv2.1 chimeras containing the S3b-S4 motif of each of four hNav1.1 domains (DI-DIV); format: cell-based, rat/human
rKv2.1 = experiment: Oocyte recording of rKv2.1; format: cell-based, rat; details: unmodified rKv2.1
rNav1.4 = rNav1.4 (Rattus norvegicus, UniProt P15390); experiment: Oocyte recording of rNav1.4; format: cell-based; details: unmodified Nav1.4
[3] = system: rNav1.4 backbone chimeras containing S1-S2, S3b-S4 and/or S5-S6 of hNav1.1; format: cell-based, rat/human
[4] = system: mechanonociceptive Aδ fibers (AM fibers); experiment: Ex vivo skin-nerve recordings; format: cell-based, mouse; details: 1 μM Hm1a on cutaneous receptive fields; 15, 50, 100 mN
dorsal horn neurons = experiment: c-Fos induction in spinal cord dorsal horn; format: in vivo, mouse; details: Hm1a 5 μM intraplantar; superficial lamina ipsilateral to injection; 90 minutes
Description: Affymetrix was commissioned to design a Type 1 probe set to mouse Nav1.1 (Scn1a, NM_018733.2) and Type 6 probe sets to mouse TRPV1 (TrpV1, NM_001001445.2), mouse Nav1.7 (Scn9a, NM_001290674.1), mouse 5HT3 (Htr3a, NM_001099644.1), and mouse TRPM8 (Trpm8, NM_134252.3) coding regions. We used the following primary antibodies: mouse anti-NF200 (1:10,000, Sigma), rabbit anti-CGRP (1:10,000, Peninsula Labs), and rabbit anti-TH (1:5,000, AbCam). We used fluorophore-conjugated secondary antibodies raised in goat against mouse or rabbit, as appropriate (1:1,000, Alexa Fluor 488, Life Technologies). To identify IB4-binding cells, biotinylated IB4 (1:1,000, Vector Labs) and fluorophore-conjugated streptavidin (1:1,000, Alexa Fluor 488, Life Technologies) were used in place of primary and secondary antibodies. Fos staining was performed 90 minutes after hindpaw injection of Hm1a or PBS. Spinal cord sections were prepared from lumbar L4/L5 and stained with rabbit anti-Fos (1:5,000, CalBiochem). ATF3 antibody (Santa Cruz Biotechnology) was used at 1:2000.

Protein sequences, listed by entry. Tags and fused reporters are not part of them. Lines headed by an entry give the natural chain unless they say otherwise; changes in a name come on top.
UniProt Q99250, whole entry: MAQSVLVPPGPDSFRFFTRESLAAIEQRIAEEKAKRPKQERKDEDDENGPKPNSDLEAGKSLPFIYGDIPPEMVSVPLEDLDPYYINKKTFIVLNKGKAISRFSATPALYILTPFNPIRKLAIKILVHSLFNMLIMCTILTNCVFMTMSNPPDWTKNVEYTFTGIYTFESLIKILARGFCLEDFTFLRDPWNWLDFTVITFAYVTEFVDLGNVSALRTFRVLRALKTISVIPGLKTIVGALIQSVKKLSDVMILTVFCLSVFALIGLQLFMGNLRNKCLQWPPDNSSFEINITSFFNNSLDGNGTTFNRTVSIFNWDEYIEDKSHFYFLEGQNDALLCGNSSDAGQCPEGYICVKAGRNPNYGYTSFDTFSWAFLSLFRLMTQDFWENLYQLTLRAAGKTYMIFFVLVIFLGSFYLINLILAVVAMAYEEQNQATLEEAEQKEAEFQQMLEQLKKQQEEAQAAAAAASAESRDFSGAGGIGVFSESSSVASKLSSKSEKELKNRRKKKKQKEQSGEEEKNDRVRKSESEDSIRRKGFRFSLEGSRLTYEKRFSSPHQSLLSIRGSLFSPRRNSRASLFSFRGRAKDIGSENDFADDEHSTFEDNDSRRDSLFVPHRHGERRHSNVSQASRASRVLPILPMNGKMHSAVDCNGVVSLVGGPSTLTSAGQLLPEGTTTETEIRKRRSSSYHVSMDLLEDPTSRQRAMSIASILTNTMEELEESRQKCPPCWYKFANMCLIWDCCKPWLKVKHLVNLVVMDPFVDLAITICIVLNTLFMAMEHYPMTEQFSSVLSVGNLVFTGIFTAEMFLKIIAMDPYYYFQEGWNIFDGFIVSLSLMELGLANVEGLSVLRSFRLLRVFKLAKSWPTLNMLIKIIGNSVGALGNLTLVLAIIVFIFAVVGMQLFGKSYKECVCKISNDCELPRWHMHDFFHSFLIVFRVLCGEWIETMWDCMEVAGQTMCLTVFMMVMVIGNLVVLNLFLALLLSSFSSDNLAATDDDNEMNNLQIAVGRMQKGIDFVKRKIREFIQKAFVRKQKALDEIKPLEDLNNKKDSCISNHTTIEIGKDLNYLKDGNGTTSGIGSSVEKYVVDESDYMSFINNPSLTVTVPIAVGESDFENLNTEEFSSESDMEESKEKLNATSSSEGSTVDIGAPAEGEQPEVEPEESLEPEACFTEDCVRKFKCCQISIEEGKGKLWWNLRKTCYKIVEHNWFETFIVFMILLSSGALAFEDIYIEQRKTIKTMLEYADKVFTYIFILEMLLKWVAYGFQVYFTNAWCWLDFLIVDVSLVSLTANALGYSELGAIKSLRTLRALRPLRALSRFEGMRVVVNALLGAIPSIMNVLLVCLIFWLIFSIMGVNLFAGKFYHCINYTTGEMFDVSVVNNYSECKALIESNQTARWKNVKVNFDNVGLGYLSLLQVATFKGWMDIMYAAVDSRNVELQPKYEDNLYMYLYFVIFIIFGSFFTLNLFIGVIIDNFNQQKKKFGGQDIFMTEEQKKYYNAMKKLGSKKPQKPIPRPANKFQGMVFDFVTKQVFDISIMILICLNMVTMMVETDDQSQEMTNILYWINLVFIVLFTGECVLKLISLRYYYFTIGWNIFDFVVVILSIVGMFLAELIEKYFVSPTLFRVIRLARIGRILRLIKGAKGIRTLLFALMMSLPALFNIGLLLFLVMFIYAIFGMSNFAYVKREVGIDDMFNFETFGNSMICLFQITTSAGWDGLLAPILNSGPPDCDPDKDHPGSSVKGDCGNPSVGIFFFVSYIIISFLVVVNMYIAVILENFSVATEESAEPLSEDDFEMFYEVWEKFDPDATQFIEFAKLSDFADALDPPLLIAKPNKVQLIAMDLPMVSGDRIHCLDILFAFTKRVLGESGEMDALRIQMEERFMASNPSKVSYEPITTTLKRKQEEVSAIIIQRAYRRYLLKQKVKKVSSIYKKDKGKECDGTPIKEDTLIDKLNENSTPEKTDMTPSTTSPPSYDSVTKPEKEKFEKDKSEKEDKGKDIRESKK
UniProt P15390, whole entry: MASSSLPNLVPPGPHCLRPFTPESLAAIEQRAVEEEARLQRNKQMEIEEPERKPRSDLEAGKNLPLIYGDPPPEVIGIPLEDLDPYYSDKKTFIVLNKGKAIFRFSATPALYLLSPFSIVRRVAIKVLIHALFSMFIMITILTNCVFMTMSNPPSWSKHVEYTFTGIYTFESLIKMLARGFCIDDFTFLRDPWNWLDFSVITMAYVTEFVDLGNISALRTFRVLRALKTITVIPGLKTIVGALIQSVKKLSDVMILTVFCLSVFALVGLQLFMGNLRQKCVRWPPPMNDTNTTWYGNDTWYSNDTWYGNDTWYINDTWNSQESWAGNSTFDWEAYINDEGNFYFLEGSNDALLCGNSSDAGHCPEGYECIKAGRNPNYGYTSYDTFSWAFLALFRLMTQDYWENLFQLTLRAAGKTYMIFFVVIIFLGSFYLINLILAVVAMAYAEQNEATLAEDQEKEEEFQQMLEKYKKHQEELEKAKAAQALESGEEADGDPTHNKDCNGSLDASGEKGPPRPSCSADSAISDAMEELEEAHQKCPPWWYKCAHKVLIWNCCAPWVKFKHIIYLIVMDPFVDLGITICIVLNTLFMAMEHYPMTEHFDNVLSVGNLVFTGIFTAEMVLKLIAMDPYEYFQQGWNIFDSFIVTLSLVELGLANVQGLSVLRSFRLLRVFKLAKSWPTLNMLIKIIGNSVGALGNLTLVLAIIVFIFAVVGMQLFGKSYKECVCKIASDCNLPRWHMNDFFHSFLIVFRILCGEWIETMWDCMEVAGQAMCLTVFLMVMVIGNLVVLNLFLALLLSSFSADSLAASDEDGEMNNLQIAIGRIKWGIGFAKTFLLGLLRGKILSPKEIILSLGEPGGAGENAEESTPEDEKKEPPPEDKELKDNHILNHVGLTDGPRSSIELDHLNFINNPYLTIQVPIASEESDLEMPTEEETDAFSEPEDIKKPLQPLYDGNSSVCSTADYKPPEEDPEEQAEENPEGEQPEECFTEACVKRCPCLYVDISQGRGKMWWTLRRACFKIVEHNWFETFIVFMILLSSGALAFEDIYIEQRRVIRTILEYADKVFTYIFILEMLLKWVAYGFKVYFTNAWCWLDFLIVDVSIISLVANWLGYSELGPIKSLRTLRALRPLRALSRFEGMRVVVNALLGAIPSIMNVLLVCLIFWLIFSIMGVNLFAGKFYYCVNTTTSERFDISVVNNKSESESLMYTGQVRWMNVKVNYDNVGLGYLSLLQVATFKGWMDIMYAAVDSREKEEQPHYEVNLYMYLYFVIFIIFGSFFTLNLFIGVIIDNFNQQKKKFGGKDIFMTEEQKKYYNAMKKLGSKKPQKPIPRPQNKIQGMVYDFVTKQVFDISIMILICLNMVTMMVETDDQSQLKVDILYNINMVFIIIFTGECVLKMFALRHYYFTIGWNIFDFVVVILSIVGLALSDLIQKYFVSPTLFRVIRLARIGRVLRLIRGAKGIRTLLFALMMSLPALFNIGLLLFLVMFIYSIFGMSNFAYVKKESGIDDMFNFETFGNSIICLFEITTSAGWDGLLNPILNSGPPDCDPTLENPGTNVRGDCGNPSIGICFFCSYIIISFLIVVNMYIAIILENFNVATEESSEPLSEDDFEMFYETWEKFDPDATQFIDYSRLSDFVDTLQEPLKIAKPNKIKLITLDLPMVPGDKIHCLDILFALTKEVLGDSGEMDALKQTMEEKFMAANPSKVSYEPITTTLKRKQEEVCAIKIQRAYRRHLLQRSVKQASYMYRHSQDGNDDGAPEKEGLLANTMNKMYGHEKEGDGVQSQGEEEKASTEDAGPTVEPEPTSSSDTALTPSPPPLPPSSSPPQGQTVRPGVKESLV
UniProt Q9NSA2: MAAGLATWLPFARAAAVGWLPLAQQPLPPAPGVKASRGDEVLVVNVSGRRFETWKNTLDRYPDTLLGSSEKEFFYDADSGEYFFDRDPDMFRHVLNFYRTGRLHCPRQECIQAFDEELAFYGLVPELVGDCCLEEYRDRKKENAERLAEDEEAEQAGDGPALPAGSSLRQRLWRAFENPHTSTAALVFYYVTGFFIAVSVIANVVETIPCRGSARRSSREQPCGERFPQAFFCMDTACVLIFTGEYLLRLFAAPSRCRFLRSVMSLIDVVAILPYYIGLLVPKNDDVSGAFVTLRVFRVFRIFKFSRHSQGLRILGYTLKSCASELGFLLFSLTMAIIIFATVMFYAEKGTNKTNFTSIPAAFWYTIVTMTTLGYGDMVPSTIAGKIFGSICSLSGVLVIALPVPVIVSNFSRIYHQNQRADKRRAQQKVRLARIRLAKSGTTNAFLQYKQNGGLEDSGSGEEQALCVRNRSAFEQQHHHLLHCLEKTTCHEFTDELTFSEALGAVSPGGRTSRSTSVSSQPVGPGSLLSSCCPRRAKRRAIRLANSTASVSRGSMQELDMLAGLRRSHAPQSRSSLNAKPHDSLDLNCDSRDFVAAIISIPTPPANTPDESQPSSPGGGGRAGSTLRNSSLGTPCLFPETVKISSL

[5] = system: mechanical response thresholds; experiment: Von Frey mechanical response thresholds after intraplantar toxin; format: in vivo, mouse
Procedure: For behavioral experiments in FIG. 4, adult mice (6-12 weeks) were used. Male and female mice were first considered separately in hindpaw nocifensive response experiments. […] Therefore, male and female behavioral responses were pooled and subsequent experiments were performed on both male and female mice for CKO and WT littermate experiments, or only male mice for other conditions (e.g. Cap ablation). Nocifensive responses were recorded during a 20 minute observation period immediately following intraplantar injections (10 μl PBS with or without 5 μM Hm1a). Licking/biting behavior was scored as seconds of behavior with the experimenter blinded to injection condition and experimental cohort (WT, CKO or Cap Ablated mice). Hargreaves and Von Frey tests were performed 30 minutes after intraplantar injection of 500 nM Hm1a or Hm1b. I.t. cap ablation was performed as previously described^34, and i.t. cap treated mice were tested on a hot plate to ensure ablation of TRPV1+afferents. Ablation was also confirmed by histology.

colonic DRG neurons = experiment: Whole-cell current clamp of retrogradely traced colonic DRG neurons; format: cell-based, mouse
[6] = molecular target: Kv4.1 voltage-gated potassium (Kv) channels (Homo sapiens, UniProt Q9NSA2); details: previously described; cited from earlier work
brain = details: previously shown; cited from earlier work

CC(C)C[C@@H]1NC(=O)[C@H](Cc2ccc(O)cc2)NC(=O)[C@H](CCCNC(=N)N)NC(=O)[C@@H](NC(=O)[C@@H](N)CCC(=O)O)CSSC[C@@H]2NC(=O)[C@@H]3CSSC[C@@H](C(=O)N[C@@H](C)C(=O)N[C@@H](Cc4c[nH]c5ccccc45)C(=O)N[C@@H](CC(=O)O)C(=O)NCC(=O)N[C@H](C(=O)N[C@@H](Cc4ccccc4)C(=O)N[C@@H](CO)C(=O)O)[C@@H](C)O)NC(=O)[C@H](Cc4ccc(O)cc4)NC(=O)[C@H](CCCCN)NC(=O)[C@H](Cc4c[nH]c5ccccc45)NC(=O)[C@H](CC(=O)O)NC(=O)[C@H](CO)NC(=O)[C@H](CCCNC(=N)N)NC(=O)[C@H](CSSC[C@H](NC(=O)CNC(=O)CNC(=O)[C@H](Cc4ccccc4)NC1=O)C(=O)N[C@@H](CO)C(=O)N[C@@H](CO)C(=O)N[C@@H]([C@@H](C)O)C(=O)N[C@@H](CO)C(=O)N[C@@H](CC(=O)O)C(=O)N3)NC(=O)[C@H](CO)NC(=O)[C@H](CC(C)C)NC(=O)[C@H](Cc1c[nH]cn1)NC(=O)[C@H](CCCCN)NC2=O [Hm1a, δ-theraphotoxin-Hm1a]
Hm1a responders among TG neurons ([1]; TG neurons cultured from newborn (P0) mice): 13% | calcium responses ([1]; synthetic Hm1a (500 nM), rat DRG neurons): triggers calcium responses | spike frequency (mouse TG neurons; 20 pA current injection, Hm1a 500 nM): robustly enhances | Hm1a responsive neurons displaying similar effect of toxin on sodium current inactivation (mouse TG neurons; P0 mouse TG neurons, steps to −30 mV from −90 mV): 15/15 | outward K+ currents (mouse TG neurons; cultured sensory neurons, 500 nM Hm1a): unaffected | resting membrane potential Vm after Hm1a (mouse TG neurons; current clamp, Hm1a-responsive TG neurons, before Hm1a −55±6 mV): −56±6 mV | Nav current inactivation (mouse TG neurons; whole-cell patch-clamp, TG neurons): robustly inhibits | effect on Nav1.1 (hNav1.1; 1 μM native Hm1a): saturating effect | speed and extent of fast inactivation (inactivation tau) (hNav1.1; Hm1a 100 nM, range of voltages): inhibits both the speed and extent of fast inactivation; also recorded: toxin-induced slowing | EC50 (hNav1.1; Xenopus oocytes, read-out: EC50, inhibition of fast inactivation): 38 ± 6 nM | toxin sensitivity (hNav1.1; hNav1.1 wild type, oocytes): fully sensitive | effect on fast inactivation (hNav1.2): substantially weaker effects | effect on fast inactivation (hNav1.4 -1.8): no effect | toxin sensitivity of S3b-S4 chimeras [2]: susceptible; also recorded: Only the DIV chimera displays toxin sensitivity | toxin sensitivity (rKv2.1): normally insensitive | toxin sensitivity (rNav1.4): completely insensitive | toxin sensitivity ([3]; Nav1.4 with S3b-S4 region of hNav1.1 only): did not confer toxin sensitivity | toxin sensitivity ([3]; Nav1.4 with S3b-S4 region plus S1-S2 loop of Nav1.1): resulted in toxin sensitivity; also recorded: fully toxin sensitive | firing rate of AM fibers during mechanical stimuli [4]: significantly increases firing rate | Fos immunoreactivity in dorsal horn neurons (dorsal horn neurons): significantly increases Fos immunoreactivity | mechanical sensitization, dependence on TRPV1-expressing fibers ([5]; 500 nM Hm1a, TRPV1-ablated mice): not dependent on TRPV1-expressing fibers | mechanical sensitization in Nav1.1-peripherin Cre (CKO) animals ([5]; 500 nM Hm1a, ipsilateral and contralateral paws): significantly attenuates; also recorded: equivalently reduced | sensitization to mechanical stimulation ([5]; 500 nM in 10 μl intraplantar, WT mice, 30 minutes after injection): robust sensitization to mechanical stimulation | mechanical sensitization of injected and contralateral paw ([5]; unilateral injection of Hm1a 500 nM): robust and equivalent mechanical sensitization | Hm1a-responsive CVH neurons (responders/neurons) (colonic DRG neurons; CVH mice): 7/11 | colonic DRG neurons with increased electrical excitability (colonic DRG neurons; CVH mice): 64% | rheobase (colonic DRG neurons; CVH mice, Hm1a-responsive neurons): significantly decreases rheobase | action potential firing at 2x rheobase (colonic DRG neurons; CVH mice, Hm1a-responsive neurons, n=7): significantly increased action potential firing | subset of colonic DRG neurons with reduced threshold for action potential firing (colonic DRG neurons; healthy mice): 45% | number of action potentials at 2× rheobase (colonic DRG neurons; healthy mice, Hm1a-responsive neurons): not to a level that reached statistical significance | rheobase (colonic DRG neurons; healthy mice, Hm1a-responsive neurons, Hm1a (10 nM)): significant reduction in rheobase | sub-population of neurons with reduction in rheobase (responders/neurons) (colonic DRG neurons; healthy mice, Hm1a (10 nM), responder ≥10% change in rheobase): 5/11 | AP firing at 2× rheobase in CVH versus normal Hm1a-responsive neurons (colonic DRG neurons; in the presence of Hm1a): significantly more AP firing | block of Kv4.1 [6]: moderate-affinity blocker | effect of injection into the brain (brain): convulsions and rapid death
